# Patent US12129235B2, “TSPO binders” (The University Court of the University of Glasgow, priority 2018, dated 2024)
# Sequences of proteins named here, by UniProt entry; tags and fusion partners are left off.
# UniProt P30536, whole entry: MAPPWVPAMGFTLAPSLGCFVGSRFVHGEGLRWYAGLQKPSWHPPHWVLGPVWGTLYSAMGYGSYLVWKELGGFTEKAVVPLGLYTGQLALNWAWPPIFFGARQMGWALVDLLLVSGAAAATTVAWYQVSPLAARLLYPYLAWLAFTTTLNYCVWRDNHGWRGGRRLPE
# Several values for one entry are separate records, joined by “and”; a condition that tells them apart may be missing. Equal values may be shown once.
# Assays:
# [1] = target: T1, TSPO (Homo sapiens, UniProt P30536); details: saturation binding curves
# Experimental: (§1) All studies using human tissue were conducted in accordance with the East of Scotland Research Ethics Service (Edinburgh Brain Bank, 11/ES/0022). […] To exclude sex dependent differences in TSPO binding (Fairweather et al.), only male samples were utilized in this study. Sample tissues were homogenized in 10× w/v buffer (50 mM Tris-Base, pH 7.4, 4° C.) before centrifugation (32,000 g, 10 min, 4° C.). Tissue pellets were then resuspended in 10× w/v buffer and centrifuged again before re-suspending them in buffer (2 mL). Samples were then assessed for protein concentration using the Bio-Rad protein assay (Bio-Rad, USA), aliquoted and stored at −80° C. until use.
# (§2) Competition binding assays were carried out as previously reported (Blair et al. (Med. Chem. Commun.)). […] A concentration of 8 μM was used to determine non-specific binding for each ligand. Binding was terminated with the addition of 2 mL of ice cold buffer before being immediate filtered over a Whatman GF/B filters (Whatman, UK) pre-treated with 0.3% polyethylenimine (Sigma-Aldrich, USA) using a Brandel harvester (Brandel, USA). Filter paper was then removed, placed into 2.5 mL of Optiphase HiSafe 3 (Perkin Elmer, USA) and counted 48 hours later on a Hidex 300 SL (Hidex, Finland). […] Affinity values (Ki) were calculated by fitting individual tissue samples based on the mean group fitting.
# [2] = target: T1, TSPO; assay: Competition binding assay against ^3H-PK11195 in human brain homogenate (HAB, MAB, LAB); set-up: other: human brain; other: human heart; details: read-out: mean affinity (Ki)
# Experimental: as §1, §2
# [3] = target: T1, TSPO; assay: Competition binding assay against ^3H-PK11195 in human heart homogenate (HAB, MAB, LAB); set-up: other: human brain; other: human heart; details: read-out: mean affinity (Ki)
# Experimental: as §1, §2
compound,measurement,setting,value
CCC(C)N(C)C(=O)c1cc2ccccc2c(-c2ccccc2Cl)n1 (stereo not drawn) [PK11195],Kd,[1],13.9 nM
same,Ki,[2],1.2 nM
same,Ki,[3],1.7 nM and 1.2 nM
